Laboratory results as given in US20260258333A1, “MULTI-ORGAN "BODY ON A CHIP" APPARATUS UTILIZING A COMMON MEDIA” (Wake Forest University Health Sciences, priority 2016, published 2026).

Test system: cardiac organoids
Details: preliminary results, FIG. 22

## mercury chloride
  ATP activity: decreases in ATP activity
